The source of these data is patent publication US20130165427A1, “COMPOUNDS AND COMPOSITIONS FOR TREATING CHEMICAL WARFARE AGENT-INDUCED INJURIES” (published 2013).

By UniProt entry, the sequences of proteins in these tests, tags left out.
UniProt O75762, whole entry, looked up: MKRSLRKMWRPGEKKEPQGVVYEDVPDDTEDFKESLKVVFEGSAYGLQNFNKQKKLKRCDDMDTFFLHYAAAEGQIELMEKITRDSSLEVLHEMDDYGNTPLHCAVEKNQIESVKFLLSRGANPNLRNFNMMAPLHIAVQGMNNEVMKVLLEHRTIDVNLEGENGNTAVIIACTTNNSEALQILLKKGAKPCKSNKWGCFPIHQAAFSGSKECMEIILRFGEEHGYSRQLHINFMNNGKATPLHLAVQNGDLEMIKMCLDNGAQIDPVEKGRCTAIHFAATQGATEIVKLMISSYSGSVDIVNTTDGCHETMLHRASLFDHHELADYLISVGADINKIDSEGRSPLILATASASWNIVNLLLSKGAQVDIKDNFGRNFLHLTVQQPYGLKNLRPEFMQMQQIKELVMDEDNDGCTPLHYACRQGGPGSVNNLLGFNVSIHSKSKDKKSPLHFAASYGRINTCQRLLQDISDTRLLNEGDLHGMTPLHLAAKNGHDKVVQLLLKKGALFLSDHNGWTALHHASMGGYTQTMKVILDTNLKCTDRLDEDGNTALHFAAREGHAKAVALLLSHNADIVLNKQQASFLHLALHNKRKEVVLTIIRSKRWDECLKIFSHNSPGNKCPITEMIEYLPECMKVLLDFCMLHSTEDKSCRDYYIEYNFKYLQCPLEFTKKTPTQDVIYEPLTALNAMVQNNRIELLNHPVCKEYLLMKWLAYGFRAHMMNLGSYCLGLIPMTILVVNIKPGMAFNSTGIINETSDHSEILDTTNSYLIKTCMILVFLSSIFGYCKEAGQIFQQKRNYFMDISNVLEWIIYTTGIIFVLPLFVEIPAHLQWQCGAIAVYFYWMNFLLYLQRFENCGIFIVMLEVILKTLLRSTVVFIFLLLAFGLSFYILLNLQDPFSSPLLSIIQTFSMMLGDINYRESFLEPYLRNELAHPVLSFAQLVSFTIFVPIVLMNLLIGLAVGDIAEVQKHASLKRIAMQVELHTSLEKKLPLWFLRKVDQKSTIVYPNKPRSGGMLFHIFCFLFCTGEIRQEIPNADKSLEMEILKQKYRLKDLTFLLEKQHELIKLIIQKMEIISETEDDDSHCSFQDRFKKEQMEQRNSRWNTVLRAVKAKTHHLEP

Bounds are passed on as bounds.

The experiment has as its target TRPA1 channel (Homo sapiens, UniProt O75762). The experiment in a line: Whole-cell patch clamp experiments, block of TRPA1 current. Particulars: read-out: activity as measured in the patch clamp assay (IC50), HEK293/TREx TRPA1 cells, block of current in continued presence of AITC.
In the case of `Cn1c(=O)c2c(ncn2CC(=O)Nc2nc(-c3ccc(F)c(F)c3)cs2)n(C)c1=O`, the IC50 is below 1000 nM.

On to `Cc1ccc(-c2csc(NC(=O)Cn3cnc4c3c(=O)n(C)c(=O)n4C)n2)cc1`, for which the IC50 is below 1000 nM. Regarding `Cn1c(=O)c2c(ncn2CC(=O)Nc2nc(-c3ccc(C(C)(C)C)cc3)cs2)n(C)c1=O`, the IC50 is below 1000 nM. Next, `Cn1c(=O)c2c(ncn2CC(=O)Nc2nc(-c3ccc(Cl)cc3)cs2)n(C)c1=O`: below 1000 nM; `Cn1c(=O)c2c(ncn2CC(=O)Nc2nnc(-c3ccc(Cl)cc3)s2)n(C)c1=O`: below 1000 nM; `Cn1c(=O)c2c(ncn2CC(=O)Nc2nc(-c3ccccc3)c(-c3ccccc3)s2)n(C)c1=O`: below 1000 nM.

Take `Cc1ccc(-c2csc(NC(=O)Cn3cnc4c3c(=O)n(C)c(=O)n4C)n2)o1`: the IC50 lay in the range of 1000 to 10000 nM.

For the compound `Cn1c(=O)c2c(ncn2CC(=O)Nc2nc(-c3ccc4ccccc4c3)cs2)n(C)c1=O`, the IC50 was below 1000 nM. Next, `Cc1ccc(-c2nc(NC(=O)Cn3cnc4c3c(=O)n(C)c(=O)n4C)sc2C)cc1`: below 1000 nM.

Consider `CC(C)c1ccc(-c2csc(NC(=O)Cn3cnc4c3c(=O)n(C)c(=O)n4C)n2)cc1`, for which the IC50 is below 1000 nM.

Consider `Cn1c(=O)c2c(ncn2CC(=O)Nc2nc(-c3ccc(Cl)c(Cl)c3)cs2)n(C)c1=O`, for which the IC50 was below 1000 nM. For the compound `CCOc1ccc(-c2csc(NC(=O)Cn3cnc4c3c(=O)n(C)c(=O)n4C)n2)cc1`, the IC50 was below 1000 nM. With `Cn1c(=O)c2c(ncn2CC(=O)Nc2nc(-c3ccc(C4CCCCC4)cc3)cs2)n(C)c1=O`, the IC50 is below 1000 nM.

As for `Cn1c(=O)c2c(ncn2CC(=O)Nc2nc(-c3ccc(F)cc3F)cs2)n(C)c1=O`, the IC50 was below 1000 nM.

As for `Cn1c(=O)c2c(ncn2CC(=O)Nc2nc(-c3ccccn3)cs2)n(C)c1=O`, the IC50 was 1000 to 10000 nM.
